# From patent US20210361639A1, “SOLID COMPOSITIONS OF ACTIVES, PROCESSES FOR PREPARING SAME AND USES OF SUCH SOLID COMPOSITIONS” (The University of Liverpool, priority 2018, published 2021)
# Test: Maraviroc release rate by Rapid Equilibrium Dialysis (RED)
# Format: physicochemical
# Conditions: 8 kDa MWCO, 6 h, 37° C., pH 7.4, oil-blended SDNs with Vitamin E
# Method: The rate of maraviroc release from the three maraviroc oil-blended SDN formulations found to most reliably and reproducibly produce nanodispersions in Example 6 was assessed across a size selective (8 kDa MWCO) membrane using RED plates and inserts. Control experiments were also run testing the rate of maraviroc release from aqueous maraviroc and a conventional maraviroc SDN
# (ACS_14-70 wt % maraviroc; 20 wt % PVA; and 10 wt % AOT as described in 2). Transport buffer (TB—consisting of Hanks balanced salt solution, 25 mM HEPES and 0.1% Bovine Serum Albumin (BSA), pH 7.4) was spiked with either DMSO dissolved maraviroc (<5% DMSO), a conventional maraviroc SDN or a maraviroc oil-blended SDN. A total of 1 mg maraviroc was added to the donor compartments for each preparation in 0.1 ml dH2O with an additional 0.5 ml of TB added to the donor chambers. One-millilitre of TB was subsequently added to the corresponding acceptor chambers. The RED plates were sealed using Parafilm to avoid evaporation and placed on an orbital shaker (Heidolph Rotomax 120; 100 rpm, 6 h, 37° C.). […] Collected samples were analysed via HPLC.
# Rapid equilibrium dialysis was performed as per Example 7. The compositions correspond to those found to form successful nanodispersions in Examples 8, 9 and 10. The data is also plotted as a bar graph in FIG. 14.
substance,measurement,value
maraviroc [Aqueous maraviroc],Rate of maraviroc release,0.2491 h
